Test system: immortalized human brain endothelial cell line (hCMEC/D3)

With “tetramethylrhodamine isothiocyanate (TRITC)-dextran [TRITC-dextran]” the “CNS (+/-)” value was “-”.

— article PMC12406253, “Exploration of the Neuromodulatory Properties of Fyn and GSK-3β Kinases Exploiting 7‑Azaindole-Based Inhibitors” (Journal of Medicinal Chemistry, 2025)
